In patent publication US7022663B2 (Yeda Research and Development Co., Ltd., priority 2000, dated 2006):

Assays:
[1] = enteric-coated tablets, buffer at pH 6.8, FIG. 3
[2] = drug substance, lyophilized material
[3] = test system: proteolytic enzymes in the gastrointestinal track
[4] = capsule formulations; Maillard reaction under accelerated storage conditions, yellowing of the granulate
grafts = conditions: cited from earlier work

For “L-glutamic acid polymer with L-alanine, L-lysine and L-tyrosine, acetate (salt) [Copolymer 1]”, the “dissolution profiles of 5 mg and 50 mg tablets compared” value [1] was “matching”, the solubility [2] was “only slightly soluble” and the “degradation by proteolytic enzymes” value [3] was “easily degraded”. The “compatibility with lactose monohydrate filler” value [4] was “long-term incompatibility” and the “cytotoxic activity toward grafts” value (grafts) was “completely abolished”.
